# Source: patent US6645903B2, “Fluoroborane salts comprising a reactive cation and uses thereof” (Colorado State University Research Foundation, priority 2000, dated 2003)
# Assay: Solubility in organic solvents
# Experimental: Hexanes and an excess of trimethylaluminum were removed under vacuum.
# A mixture of [CPh3][(CH3)3NB12F11] […] A mixture was stirred under a nitrogen atmosphere for 20 h.
# The orange microcrystalline compound (CPh3)2B12F12 (0.195 g, 0.231 mmol) was treated with 2 ml of toluene solution of AlMe3 (0.161 g, 2.240 mmol). […] The mixture was stirred for additional 40 hours.
substance,measurement,setting,value
Al(CH3)2(1-C12H25-CB11F11),solubility in hexanes,hexanes,at least 0.02 M
same,solubility in aliphatic hydrocarbon solvents,"hexanes, methylcyclohexane",highly soluble
same,solubility in aliphatic hydrocarbon solvents,"hexanes, methylcyclohexane, listed as AlMe2(1-Dd-CB11F11)",soluble
same,solubility in methylcyclohexane,methylcyclohexane,at least 0.05 M
